Measured values: patent publication US20020168389A1, “Stable skin conditioning compositions containing retinoid boosters” (priority 2000, published 2002)

Tested on: ARAT
Test: Assay for ARAT activity, RPE microsomes (to identify B1)
Assay type: biochemical, bovine
Conditions: 10 μm compound

## Dioctyiphosphatidyl Ethanolamine
  % Inhibition ARAT (10 μm): 23%
